Assay results taken from patent publication US11795195B2, “Antibody-drug conjugates including hemiasterlin derivative” (Sumitomo Pharma Co., Ltd., priority 2017, dated 2023).

System: SK-BR-3 cells
Test: Cellular Toxicity Test (1) for ADCs
Format: cell-based, human
Settings: SK-BR-3 (CD30 antigen-negative, HER2 antigen-positive cell line), 3 days
Protocol: Karpas-299 cells (ECACC), which are CD30 antigen-positive and HER2 antigen-negative, were cultured in RPMI 1640 (GIBCO) containing 10% fetal bovine serum (MP Biomedicals) (hereinafter, referred to as “culture medium A” in this test). In addition, SK-BR-3 cells (ATCC), which are CD30 antigen-negative and HER2 antigen-positive, were cultured in McCoy's 5A (GIBCO) containing 10% fetal bovine serum (MP Biomedicals) (hereinafter, referred to as “culture medium B” in this test). Karpas-299 cells and SK-BR-3 cells were prepared to be 2×10^6 cells/mL in culture medium A or culture medium B, and were added to a 96 well microplate for cell culturing in an amount of 50 μL for each well. After the addition, SK-BR-3 cells were cultured at 37 degree under 5% CO2 overnight. ADCs 4 times diluted with culture medium A or culture medium B in 8 stages were added to the microplate in an amount of 50 μL for each well, and Karpas-299 cells and SK-BR-3 cells were cultured at 37 degree under 5% CO2 for 4 days or 3 days, respectively. After culturing, the microplate was taken out from the incubator, and was left at rest at room temperature for 10 minutes. […] Using a microplate luminometer, luminescence was measured, thereby calculating the cell viability for each concentration of the ADC. The IC50 value was calculated in accordance with the method described in Test Example 1.

Comparative Example 2: Trastuzumab, a HER2 antigen-specific antibody, no modifying agent, average DAR 0
IC50: > 6.6 nM
